{"source": "patent US7351686B2", "about": "(priority 2001, dated 2008)", "origin": "cited, not measured here", "system": "ALS patients", "settings": "human, in vivo, cited from earlier work", "data": [{"smiles": "Nc1nc2ccc(OC(F)(F)F)cc2s1", "note": "[Riluzole, 2-amino-6-(trifluoromethoxy)benzothiazole]", "values": [{"measurement": "elongation of life span of ALS patients", "setting": "po", "value": "about 3 months"}, {"measurement": "muscular strength or neurologic function in ALS patients", "value": "does not improve"}]}]}
